Experimental data reported in patent US7786328B2, “Cyclohexyl-1,4-diamine compounds” (dated 2010).

The chains behind the UniProt entries cited, without tags or fusion partners. Where a name states a change or a piece, a line headed by the entry shows the natural chain unless it says otherwise.
UniProt P35372, whole entry, looked up: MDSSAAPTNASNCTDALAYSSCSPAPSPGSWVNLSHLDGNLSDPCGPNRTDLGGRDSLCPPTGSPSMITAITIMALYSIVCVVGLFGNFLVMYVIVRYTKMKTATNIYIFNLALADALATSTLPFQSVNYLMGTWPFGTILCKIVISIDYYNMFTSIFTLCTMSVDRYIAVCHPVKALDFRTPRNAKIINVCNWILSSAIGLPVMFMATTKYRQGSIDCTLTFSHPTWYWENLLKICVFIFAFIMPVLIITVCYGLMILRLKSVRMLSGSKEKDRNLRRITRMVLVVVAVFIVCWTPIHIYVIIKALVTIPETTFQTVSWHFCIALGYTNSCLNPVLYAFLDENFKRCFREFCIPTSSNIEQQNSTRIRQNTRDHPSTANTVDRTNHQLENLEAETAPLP
UniProt P31652: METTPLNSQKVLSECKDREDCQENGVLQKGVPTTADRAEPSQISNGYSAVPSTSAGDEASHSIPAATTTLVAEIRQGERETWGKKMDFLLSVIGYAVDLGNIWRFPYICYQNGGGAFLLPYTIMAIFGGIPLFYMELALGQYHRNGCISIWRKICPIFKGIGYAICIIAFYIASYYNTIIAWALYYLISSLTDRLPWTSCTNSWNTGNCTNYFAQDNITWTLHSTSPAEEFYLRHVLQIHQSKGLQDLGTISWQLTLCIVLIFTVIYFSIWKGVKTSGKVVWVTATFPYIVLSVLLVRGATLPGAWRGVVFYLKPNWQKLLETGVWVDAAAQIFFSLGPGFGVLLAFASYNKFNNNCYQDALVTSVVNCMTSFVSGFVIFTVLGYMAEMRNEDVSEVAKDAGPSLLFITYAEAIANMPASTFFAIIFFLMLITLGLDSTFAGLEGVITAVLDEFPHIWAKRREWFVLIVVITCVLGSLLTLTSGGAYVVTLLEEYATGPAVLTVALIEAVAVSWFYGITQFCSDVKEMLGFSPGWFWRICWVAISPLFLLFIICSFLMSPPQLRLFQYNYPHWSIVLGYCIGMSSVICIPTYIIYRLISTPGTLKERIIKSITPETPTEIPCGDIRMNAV
UniProt Q9WTR4: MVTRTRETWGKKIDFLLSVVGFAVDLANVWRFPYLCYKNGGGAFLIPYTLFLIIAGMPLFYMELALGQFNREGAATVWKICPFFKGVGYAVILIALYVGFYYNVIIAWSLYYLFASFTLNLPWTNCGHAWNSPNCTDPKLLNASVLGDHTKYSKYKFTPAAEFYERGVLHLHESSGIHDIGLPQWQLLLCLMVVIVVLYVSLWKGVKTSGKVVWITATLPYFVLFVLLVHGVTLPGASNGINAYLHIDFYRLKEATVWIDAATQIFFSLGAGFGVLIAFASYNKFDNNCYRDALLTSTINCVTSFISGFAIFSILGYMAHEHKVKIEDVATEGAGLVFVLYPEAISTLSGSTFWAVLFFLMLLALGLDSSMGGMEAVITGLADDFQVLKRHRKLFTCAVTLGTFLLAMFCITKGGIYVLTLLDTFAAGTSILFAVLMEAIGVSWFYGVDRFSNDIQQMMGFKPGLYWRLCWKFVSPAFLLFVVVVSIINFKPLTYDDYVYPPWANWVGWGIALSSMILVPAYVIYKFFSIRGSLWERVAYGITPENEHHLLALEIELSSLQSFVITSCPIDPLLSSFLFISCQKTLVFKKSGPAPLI
UniProt P41146: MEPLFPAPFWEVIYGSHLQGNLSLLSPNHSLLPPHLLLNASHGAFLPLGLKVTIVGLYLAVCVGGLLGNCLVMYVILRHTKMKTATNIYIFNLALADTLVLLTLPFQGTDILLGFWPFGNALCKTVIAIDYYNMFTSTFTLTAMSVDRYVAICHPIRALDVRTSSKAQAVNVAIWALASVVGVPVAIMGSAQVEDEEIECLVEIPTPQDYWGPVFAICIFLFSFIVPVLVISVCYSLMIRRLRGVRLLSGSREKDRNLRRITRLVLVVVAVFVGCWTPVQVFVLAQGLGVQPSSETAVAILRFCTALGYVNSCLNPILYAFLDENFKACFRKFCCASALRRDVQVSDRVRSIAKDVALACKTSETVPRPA

Legend:
human μ-opiate receptor = human μ-opiate receptor (Homo sapiens, UniProt P35372); experiment: Measurement of the μ binding ([3H]-naloxone displacement, CHO-K1 membrane preparation); conditions: test substance 1 μM; inhibition of specific binding of 1 nmol/l [3H]-naloxone
5HT uptake = 5HT uptake (Rattus norvegicus, UniProt P31652); experiment: Measurement of the serotonin reuptake (synaptosomes from medulla+pons of male rat brains); conditions: rat brain synaptosomes (medulla+pons)
NA uptake = NA uptake (Rattus norvegicus, UniProt Q9WTR4); experiment: Measurement of the noradrenaline reuptake (synaptosomes from hypothalamus of male rat brains); conditions: rat brain synaptosomes (hypothalamus)
ORL1 receptor = ORL1 receptor (Homo sapiens, UniProt P41146); experiment: Measurement of the ORL1 binding (3H-nociceptin/orphanin FQ, membranes from recombinant CHO-ORL1 cells); conditions: c=1 μM; 0.5 nM 3H-nociceptin/orphanin FQ

Compound | μ-Opiate receptor [1 μM], % inhibition (human μ-opiate receptor) [%] | 5HT uptake [10 μM], % inhibition (5HT uptake) [%] | NA uptake [10 μM], % inhibition (NA uptake) [%] | ORL1 [1 μM], % inhibition (ORL1 receptor) [%]
N-(4-Dimethylamino-4-phenylcyclohexyl)-4-phenoxybutyramide hydrochloride, More Polar Diastereoisomer | 71 | 78 | 56 | 39
N-(4-Dimethylamino-4-phenylcyclohexyl)-4-phenoxybutyramide hydrochloride, Less Polar Diastereoisomer | 100 | 98 | 77 | 99
2-(3-Chlorophenoxy)-N-(4-dimethylamino-4-phenylcyclohexyl)acetamide hydrochloride, Less Polar Diastereoisomer | 100 | 97 | 87 | 99
CN(C)C1(Cc2ccc(F)cc2)CCC(NC(=O)CCCOc2ccccc2)CC1 (stereo not drawn) | 68 | – | – | 52
2-(3-Chlorophenoxy)-N-(4-dimethylamino-4-phenylcyclohexyl)acetamide hydrochloride, More Polar Diastereoisomer | 68 | – | 40 | 46
CN(C)C1(c2cccs2)CCC(NC(=O)COc2ccccc2)CC1 (stereo not drawn) | 94 | – | – | 93
CC(=O)OCC(=O)NC1CCC(c2cccs2)(N(C)C)CC1 (stereo not drawn) | 77 | – | – | 50
